Measurements: patent US6472391B2, “Nitrogen-containing heterocyclic compounds” (Millennium Pharmaceuticals, Inc., priority 1996, dated 2002)

Amino acid sequences for entries named in this document (tags omitted). Residues count along the entry.
UniProt P09619, 33-1106: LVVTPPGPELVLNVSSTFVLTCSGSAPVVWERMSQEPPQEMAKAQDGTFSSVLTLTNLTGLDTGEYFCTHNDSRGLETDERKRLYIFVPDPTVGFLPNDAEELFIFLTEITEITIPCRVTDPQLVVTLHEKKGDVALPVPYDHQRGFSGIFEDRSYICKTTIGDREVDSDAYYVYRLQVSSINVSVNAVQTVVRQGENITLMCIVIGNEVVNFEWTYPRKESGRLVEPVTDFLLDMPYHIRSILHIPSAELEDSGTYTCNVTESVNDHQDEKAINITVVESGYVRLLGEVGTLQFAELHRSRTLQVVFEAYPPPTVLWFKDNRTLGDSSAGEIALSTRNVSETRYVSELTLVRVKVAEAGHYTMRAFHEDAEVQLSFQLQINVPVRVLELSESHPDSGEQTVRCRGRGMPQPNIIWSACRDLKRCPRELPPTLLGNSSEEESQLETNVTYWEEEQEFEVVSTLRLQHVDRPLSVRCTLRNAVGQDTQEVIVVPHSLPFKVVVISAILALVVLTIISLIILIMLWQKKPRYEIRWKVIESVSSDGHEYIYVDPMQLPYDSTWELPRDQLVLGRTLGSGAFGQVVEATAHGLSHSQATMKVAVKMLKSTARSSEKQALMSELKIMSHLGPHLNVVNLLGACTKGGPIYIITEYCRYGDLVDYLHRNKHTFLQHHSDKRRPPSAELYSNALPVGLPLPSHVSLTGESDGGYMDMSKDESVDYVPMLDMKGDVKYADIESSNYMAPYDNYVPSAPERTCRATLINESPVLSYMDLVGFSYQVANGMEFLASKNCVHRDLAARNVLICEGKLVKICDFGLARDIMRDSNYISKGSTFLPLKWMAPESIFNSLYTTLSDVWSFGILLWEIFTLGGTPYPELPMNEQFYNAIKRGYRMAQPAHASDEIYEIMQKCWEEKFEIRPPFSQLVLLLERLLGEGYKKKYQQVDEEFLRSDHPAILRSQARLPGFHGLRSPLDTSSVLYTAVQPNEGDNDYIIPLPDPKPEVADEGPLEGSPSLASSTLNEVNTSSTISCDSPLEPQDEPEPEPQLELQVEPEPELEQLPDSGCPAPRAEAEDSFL

biological target: T1, human β-PDGF receptor (Homo sapiens, UniProt P09619); assay: Inhibitory effect on phosphorylation of PDGF receptor; assay type: cell-based; conditions: CHO cells expressing human β-PDGF receptor
T1 construct: expressed in transfected cells; host or cells: Chinese hamster ovary cells (CHO)
Method: Test Example 1 Inhibitory Effect on Phosphorylation of PDGF Receptor
The test was carried out according to the method described in the literature [Dah-Shuhn et al., J. Biol. Chem., 266, 413-418 (1991)], using Chinese hamster ovary cells (CHO) wherein human β-PDGF receptor cDNA was introduced and expressed.

| IC50 | Compound |
| --- | --- |
| 340 nM | O=C(Nc1ccc(Oc2ccccc2)cc1)N1CCN(c2ncnc3ccccc23)CC1 [Compound 104, N-(4-Phenoxyphenyl)-4-(4-quinazolinyl)-1-piperazinecarboxamide] |
| 410 nM | CCNc1cc2ncnc(N3CCN(C(=O)Nc4ccc(Oc5ccccc5)cc4)CC3)c2cc1[N+](=O)[O-] [Compound 109, 4-(7-Ethylamino-6-nitro-4-quinazolinyl)-N-(4-phenoxyphenyl)-1-piperazinecarboxamide] |
| 360 nM | O=C(Nc1ccc(Oc2ccccc2)cc1)N1CCN(c2ccnc3cc(Cl)ccc23)CC1 [Compound 115, 4-(7-Chloro-4-quinolyl)-N-(4-phenoxyphenyl)-1-piperazinecarboxamide] |
| 120 nM | Cn1c(=O)n(C)c2cc3c(N4CCN(C(=O)Nc5ccc(Oc6ccccc6)cc5)CC4)ncnc3cc21 [Compound 121, 4-(1,3-Dihydro-1,3-dimethyl-2-oxo-2H-imidazo[4,5-g]quinazolin-8-yl)-N-(4-phenoxyphenyl)-1-piperazinecarboxamide] |
| 280 nM | CCn1nnc2cc3c(N4CCN(C(=O)Nc5ccc(Oc6ccccc6)cc5)CC4)ncnc3cc21 [Compound 124, 4-(3-Ethyl-3H-1,2,3-triazolo[4,5-g]quinazolin-8-yl)-N-(4-phenoxyphenyl)-1-piperazinecarboxamide] |
| 200 nM | O=C(Nc1ccc(Oc2ccccc2)cc1)N1CCN(c2ncnc3cc4c(cc23)OCO4)CC1 [Compound 367, 4-(6,7-Methylenedioxy-4-quinazolinyl)-N-(4-phenoxyphenyl)-1-piperazinecarboxamide] |
| 190 nM | O=C(Nc1ccc(Oc2ccccc2)cc1)N1CCN(c2ccnc3ccccc23)CC1 [Compound 394, N-(4-Phenoxyphenyl)-4-(4-quinolyl)-1-piperazinecarboxamide] |
| 210 nM | CCOC(=O)c1cnc2cc(OC)c(OC)cc2c1N1CCN(C(=O)Nc2ccc(Oc3ccccc3)cc2)CC1 [Compound 408, 4-(6,7-Dimethoxy-3-ethoxycarbonyl-4-quinolyl)-N-(4-phenoxyphenyl)-1-piperazinecarboxamide] |
| 930 nM | O=C(Nc1ccc(Oc2ccccc2)cc1)N1CCN(c2nncc3ccccc23)CC1 [Compound 414, N-(4-Phenoxyphenyl)-4-(1-phthalazinyl)-1-piperazinecarboxamide] |
| 1120 nM | COc1cc2nncc(N3CCN(C(=O)Nc4ccc(Oc5ccccc5)cc4)CC3)c2cc1OC [Compound 426, 4-(6,7-Dimethoxy-4-cinnolinyl)-N-(4-phenoxyphenyl)-1-piperazinecarboxamide] |
